For one compound, IC50 results are on record in US9388139B2, “Derivatives of celeboxib, use thereof and preparation thereof” (German University, priority 2011, dated 2016).

Bounds are passed on as bounds.

The test system of experiment [1] is human colorectal HT-29 tumor cell line. The experiment can be described thus: Tumor cell growth assay (Cell Titer Glo). The class given is cell-based. The following applies: 72 hours, read-out: IC50 μM against HT-29. On the technique in general: ATP-based viability assays read luminescence as a measure of living cells.
Experiment [2] has as its system human breast MDA-MB-231 tumor cell line. The experiment can be described thus: Tumor cell growth assay (Cell Titer Glo). The format is cell-based. The settings on record: 72 hours, read-out: IC50 μM against MDA-MB-231.

Regarding `Cc1ccc(-c2cc(C(F)(F)F)nn2-c2ccc(S(N)(=O)=O)cc2)cc1` [Celecoxib, reference compound], the values for the IC50 in experiment [1] and in experiment [2] were 26.5 µM and greater than 50 µM, respectively.
